Measured affinities in a library of Ab-14 heavy chain variants

Data: MIT Lincoln Laboratory AlphaSeq set, Li et al. 2023, doi:10.1038/s41467-023-39022-2, as distributed in FLAb.

Target: peptide PDVDLGDISGINAS, taken from heptad repeat 2 (HR2) of SARS-CoV-2 spike.

Each scFv is VH, the linker GGGGSGGGGSGGGGS, VL, as in the parent Ab-14, and differs from it in the CDRs of the heavy chain only.
VH: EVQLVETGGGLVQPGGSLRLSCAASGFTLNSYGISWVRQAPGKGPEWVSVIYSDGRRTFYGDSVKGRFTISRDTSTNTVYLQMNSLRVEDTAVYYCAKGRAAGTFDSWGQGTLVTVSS
VL: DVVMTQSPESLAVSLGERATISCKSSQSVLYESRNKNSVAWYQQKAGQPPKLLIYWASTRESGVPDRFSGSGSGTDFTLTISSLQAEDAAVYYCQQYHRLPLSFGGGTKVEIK

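Phage display of a naive human antibody library on the peptide gave the parent. Designed CDR sequences, proposed from the first random library and measured here. Several design methods are mixed in this list. The scFvs were displayed on barcoded MATa yeast, the peptide on MATalpha yeast. Pairs that bind mate more often; barcode pairs of the diploids are counted by sequencing. Read counts were normalised to the haploid input and turned into Kd by a linear fit to BCL2-family pairs of known affinity, for each replicate. Mating was done six times.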

The parent's heavy chain CDRs are GFTLNSYGIS, VIYSDGRRTFYGDSVK, GRAAGTFDS; each variant's own CDRs replace them letter for letter.
Numbers give log10(Kd / nM), so 0 is 1 nM and 3 is 1 µM. Smaller is tighter.
A mean of the replicates is given; it leaves out those without a signal.
"n.d." means that the variant was in the library but no mating with the target was seen in that replicate; the authors take this as a sign of poor binding, and no number exists.
Empty control strains, which show no peptide, gave a signal in 1% of pairings with all heavy chain designs; the median was 2.08 and 95% of these signals were weaker than 0.84. No background was subtracted.
In the paper, a design with two or fewer of six values counts as a poor binder.
Values of this round are not directly comparable with the first-round values of the same sequences.
Of ten entries with the parent sequence, four were seen in most replicates (averages 0.34 to 2.37), three in one and three in none, so single entries are noisy.

CDR-H1,CDR-H2,CDR-H3,log10 Kd (nM) by replicate,"log10 Kd (nM), mean"
GFDLEDYGIS,VIYADGRRTFYADSVK,GNVAGTFDM,-0.81 / -0.37 / -1.19 / -0.93 / -1.21 / -0.25,-0.79
GFTLNDYGIS,VIYSDGRCTQYIDSVK,GRAAGTFDS,n.d. / n.d. / n.d. / n.d. / n.d. / n.d.,n.d.
GFQLNDYGIS,VIYSDGRRTFYADSVK,GRTAGTFDS,0.09 / 0.16 / 0.17 / 0.41 / 0.72 / 0.43,0.33
GFDLNEYGIS,VIYADGRRTAYADKVK,GNVAGTFDI,-0.53 / -0.58 / -0.86 / -0.82 / -1.19 / -0.70,-0.78
DFNLNEYGIS,VIYADGVRASYRNTVK,GQISGDFDL,n.d. / n.d. / n.d. / n.d. / n.d. / n.d.,n.d.
GFELNSYGIS,VIYSDGRRTFYGDSVK,GRTAGTFDD,1.38 / 1.17 / 0.32 / 0.55 / 0.41 / 1.08,0.82
GFTLNSYGIS,VIYSDGRRTAYGDSVK,GEAAGKFDK,n.d. / n.d. / n.d. / n.d. / n.d. / n.d.,n.d.
GFQLNSYGIS,VIYSDGRRTFYDDSVK,GRTAGTFDS,1.19 / 0.09 / 0.49 / 0.56 / 0.96 / 0.84,0.69
GFHLNSYGIS,VIYSDGRRTFYADSVK,GTAAGTFDS,0.99 / 0.66 / 1.07 / 0.88 / 1.10 / 1.20,0.99
GFQLNNYGIS,VIYSDGRRTFYSDQVK,GQAAGTFDS,1.86 / 0.57 / 1.03 / 0.43 / 0.73 / 0.70,0.89
GFDLNEYGIS,VIYADGMRTAYADKVK,GQNAGTFDL,0.41 / -0.65 / -1.01 / -1.16 / -1.00 / -0.77,-0.70
GFSLNSYGIS,VIYSDGRRTFYQDSVK,GRTAGTFDS,n.d. / n.d. / n.d. / n.d. / 0.83 / 0.77,0.80
GFTLNDYGIS,VGYSDGRRTFYGDSVK,YRAALTFIS,n.d. / n.d. / n.d. / n.d. / n.d. / n.d.,n.d.
YFSLNSYGIS,VIYSDGRRTFYGDSVK,GKTAGTFDS,n.d. / n.d. / n.d. / n.d. / n.d. / n.d.,n.d.
GMKLQDYGIS,VIYADGRRTAFKESVK,GQIAGTFNF,0.76 / n.d. / n.d. / n.d. / 1.99 / n.d.,1.37
GFTLNEYGIS,VIYADGRRTFYGDSVK,GRAAGTFKM,n.d. / n.d. / n.d. / n.d. / n.d. / n.d.,n.d.
GFDLNEYGIS,VIYADGKRTFYADSVK,GNNAGTFIS,0.92 / 1.28 / n.d. / 1.63 / n.d. / n.d.,1.27
GFDLNEYGIS,VIYADGMRTAYADNVK,GQVAGTFDM,-0.51 / -0.47 / 0.28 / -1.02 / -0.23 / -0.57,-0.42
GFTLDEYGIS,VIYADGRRTFYTDSVK,GGNAGTFDV,-0.58 / -0.40 / -0.59 / -0.72 / -0.57 / -0.24,-0.52
GDDLQEYGIS,VIYADGLRTAYGNKVK,GGSNGLVTV,n.d. / n.d. / n.d. / n.d. / n.d. / n.d.,n.d.
GFDLNEYGIS,VIYADGMRTAYSDSVK,GEVAGTFDT,-0.26 / -0.17 / -0.44 / -0.20 / 0.09 / -0.09,-0.18
GFSLNSYGIS,VIYSDGRRTFYVDNVK,GNAAGTFDS,n.d. / n.d. / 0.74 / 0.11 / 0.58 / n.d.,0.48
GFSLNQYGIS,VIYSDGRRTFYSDSVK,GRAAGFFDS,n.d. / n.d. / n.d. / n.d. / n.d. / n.d.,n.d.
GFDLNEYGIS,VIYADGVRTFYVDSVK,GQVAGTFDV,-0.17 / -0.43 / -0.47 / -0.36 / -0.43 / -0.22,-0.35
GFTLNEYGIS,VIYSDGRRTFYGESVK,GRAAVTFDL,n.d. / n.d. / n.d. / n.d. / n.d. / n.d.,n.d.
GFSLEKYGIS,VIYSDGRRTFYGDSVK,GRTAGTFDS,0.53 / -0.09 / 0.09 / -0.49 / -0.01 / -0.25,-0.04
GFTLNDYGIS,VWYSDGRRTQMIDSVK,GRAAGTFDS,n.d. / n.d. / n.d. / n.d. / n.d. / n.d.,n.d.
GFTLNSYGIS,VIYSDGRRTFYGDDVK,GQAAGTFDV,1.15 / 0.91 / 1.68 / 1.58 / 1.17 / 2.00,1.42
MFDLNSYGIS,VIYSDGKRTFYGDSVK,GRQAGTFDS,n.d. / 1.75 / 1.56 / 2.21 / 1.20 / 0.93,1.53
GFDLNEYGIS,VIYADGSRTFYADSVK,GEAAGSFDV,1.08 / 1.36 / 0.85 / 0.42 / 0.59 / 0.91,0.87
GFNLDEYGIS,VIYADGQRTYYAEAVK,GSNDSGITV,n.d. / n.d. / n.d. / n.d. / n.d. / n.d.,n.d.
GFDLNSYGIS,VIYSDGRRTFYVDSVK,GRNAGTFDS,0.73 / 0.75 / 0.34 / 0.32 / 0.39 / 0.43,0.49
GKSLEEYGIS,VIYADGKRNMYANNVK,GHVGYIFMM,n.d. / n.d. / n.d. / n.d. / n.d. / n.d.,n.d.
GNTLESYGIS,VIYSDGRRTFYGDSVK,GRAAGTKDS,n.d. / n.d. / n.d. / n.d. / n.d. / n.d.,n.d.
GFELNSYGIS,VIYSDGRRTFYIDSVK,GNAAGTFDS,0.38 / 0.30 / 0.30 / 0.18 / -0.10 / 0.42,0.25
GFEINSYGIS,VIYSDGRRTFYGDSVK,GRAAGTFDS,1.61 / 1.13 / 2.36 / 0.77 / 1.52 / 1.40,1.46
GFNLNEYGIS,VIYADGMRTFYSDSVK,GENAGTFDV,-0.15 / -0.45 / -0.53 / -0.68 / -0.63 / -0.09,-0.42
GESLEQYGIS,VIYADGMRTSYTNSVK,GVWAGTFMQ,n.d. / n.d. / n.d. / n.d. / n.d. / n.d.,n.d.
GFDLDEYGIS,VIYADGMRTAYSDSVK,GNNAGTFDI,0.24 / 0.12 / -0.16 / 0.18 / 0.09 / 0.01,0.08
GFTLNSYGIS,VIYSDGRRTFYGDSVK,GDEAGTFDT,0.54 / 0.85 / 0.47 / 0.68 / 0.47 / 0.22,0.54

The 4 strongest on average among those seen in every replicate, once more:

{"CDR-H1": "GFDLEDYGIS", "CDR-H2": "VIYADGRRTFYADSVK", "CDR-H3": "GNVAGTFDM", "log10 Kd (nM) by replicate": "-0.81 / -0.37 / -1.19 / -0.93 / -1.21 / -0.25", "log10 Kd (nM), mean": "-0.79"}
{"CDR-H1": "GFDLNEYGIS", "CDR-H2": "VIYADGRRTAYADKVK", "CDR-H3": "GNVAGTFDI", "log10 Kd (nM) by replicate": "-0.53 / -0.58 / -0.86 / -0.82 / -1.19 / -0.70", "log10 Kd (nM), mean": "-0.78"}
{"CDR-H1": "GFDLNEYGIS", "CDR-H2": "VIYADGMRTAYADKVK", "CDR-H3": "GQNAGTFDL", "log10 Kd (nM) by replicate": "0.41 / -0.65 / -1.01 / -1.16 / -1.00 / -0.77", "log10 Kd (nM), mean": "-0.70"}
{"CDR-H1": "GFTLDEYGIS", "CDR-H2": "VIYADGRRTFYTDSVK", "CDR-H3": "GGNAGTFDV", "log10 Kd (nM) by replicate": "-0.58 / -0.40 / -0.59 / -0.72 / -0.57 / -0.24", "log10 Kd (nM), mean": "-0.52"}